Here are results for one substance from paper PMC7811525, “Virtual screening of potentially endocrine-disrupting chemicals against nuclear receptors and its application to identify PPARγ-bound fatty acids” (Archives of Toxicology, 2020).

Protein sequences, listed by entry. Tags and fused reporters are not part of them. Residues count along the entry.
UniProt P37231, 232-505: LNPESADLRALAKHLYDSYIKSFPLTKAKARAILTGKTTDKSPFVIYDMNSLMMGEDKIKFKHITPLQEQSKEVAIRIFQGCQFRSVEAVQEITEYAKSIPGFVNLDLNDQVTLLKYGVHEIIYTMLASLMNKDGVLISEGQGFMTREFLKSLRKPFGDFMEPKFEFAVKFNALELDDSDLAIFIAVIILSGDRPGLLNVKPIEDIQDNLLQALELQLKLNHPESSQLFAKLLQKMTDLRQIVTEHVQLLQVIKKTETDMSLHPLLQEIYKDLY

In this assay the target is T1, PPARγ ligand binding domain (204–477) (Homo sapiens, UniProt P37231).
T1 construct: GST (N, cleaved yes); made in house; host or cells: E. coli BL21(DE3)
In words: Surface plasmon resonance (SPR) analysis of fatty acid binding to immobilized PPARγ LBD. How it is done: The protein was firstly purified using a glutathione Sephararose 4B column, followed by PreScission protease cleavage to remove the GST-tag. […] The finally collected protein in 20 mM Tirs, pH8.0, 150 mM NaCl and 2 mM DTT was concentrated to 20 mg/ml. The purity was checked by SDS-PAGE and protein was stored at − 80 °C for use.
PPARγ (0.05 mg/ml) were coupled onto CM5 sensor chips according to amine coupling procedure from the manufacturer’s manual. […] A reference channel was generated at same conditions without protein injection and used as a blank control to correct the instrument or buffer artifacts. Fatty acids were dissolved in DMSO and diluted with concentration ranging from 0.78 to 50 μM, and injected at a flowrate of 40 μL/min. Each sensorgram consists of an association phase (120 s), indicating the binding of the injected compound to the protein, followed by a dissociation phase (300 s) during which the running buffer (10 mM phosphate buffer, 150 mM NaCl, 5% DMSO, 0.05% Tween 20, pH 7.4) is passed over and the bound compounds were eluted from the chip surface. The Kd was calculated by steady-state binding fitting method in Biacore T200 evaluate the software.
For orientation: In SPR one partner is held on a chip, and binding of the other changes the refractive index at the surface.

The term Kd denotes the constant that tells how readily two partners part at equilibrium. On to pinolenic acid [PLA], for which the Rmax (SPR steady-state fit, FUA: chip coupled with 12000RU) is > 10,000.00 RU. In addition, the “binding to PPARγ in SPR (in words)” value (compared with DHA and EPA) was “weaker binding than DHA”. Moreover, where the note is “steady-state fit, Biacore T200, chip about 6500 RU (FUA: chip coupled with 12000RU PPARγ LBD)”, the Kd is more than 10 mM.
